Data reported in BindingDB's records for patent US9809545 (Merck Sharp & Dohme Corp, 2017).

The chains behind the UniProt entries cited, without tags or fusion partners. Residues count along the entry.
UniProt P03951, 19-387 limits assumed: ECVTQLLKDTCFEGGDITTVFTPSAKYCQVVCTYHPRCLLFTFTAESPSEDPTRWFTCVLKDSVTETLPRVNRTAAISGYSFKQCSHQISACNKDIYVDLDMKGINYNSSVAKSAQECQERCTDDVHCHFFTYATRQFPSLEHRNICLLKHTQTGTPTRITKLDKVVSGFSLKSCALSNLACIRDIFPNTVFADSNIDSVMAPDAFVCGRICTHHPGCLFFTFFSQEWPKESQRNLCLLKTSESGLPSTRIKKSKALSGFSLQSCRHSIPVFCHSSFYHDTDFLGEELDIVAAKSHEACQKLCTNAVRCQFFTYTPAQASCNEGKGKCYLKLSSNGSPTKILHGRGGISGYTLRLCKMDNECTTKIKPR
UniProt P03951, 388-625 limits assumed: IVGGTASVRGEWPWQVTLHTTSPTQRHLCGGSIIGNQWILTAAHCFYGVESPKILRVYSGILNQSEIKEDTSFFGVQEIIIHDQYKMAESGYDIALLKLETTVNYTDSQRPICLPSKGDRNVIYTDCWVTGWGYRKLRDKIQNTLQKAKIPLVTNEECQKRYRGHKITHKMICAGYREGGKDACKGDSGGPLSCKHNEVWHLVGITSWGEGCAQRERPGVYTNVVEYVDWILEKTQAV

Molecular target: Coagulation factor XI (Homo sapiens, UniProt P03951)

- Ki: 240 nM
Structure (SMILES): O=c1cc(-c2cc(Cl)ccc2-n2cnnn2)ccn1[C@@H](Cc1ccc(F)cc1)c1nnc(-c2ccc(F)cc2)o1 [US9809545, 6h]
